The values below come from EP2892896B1 (Bristol-Myers Squibb Company, priority 2012, dated 2014).

By UniProt entry, the sequences of proteins in these tests, tags left out.
UniProt Q99705, whole entry E4Q/A5T: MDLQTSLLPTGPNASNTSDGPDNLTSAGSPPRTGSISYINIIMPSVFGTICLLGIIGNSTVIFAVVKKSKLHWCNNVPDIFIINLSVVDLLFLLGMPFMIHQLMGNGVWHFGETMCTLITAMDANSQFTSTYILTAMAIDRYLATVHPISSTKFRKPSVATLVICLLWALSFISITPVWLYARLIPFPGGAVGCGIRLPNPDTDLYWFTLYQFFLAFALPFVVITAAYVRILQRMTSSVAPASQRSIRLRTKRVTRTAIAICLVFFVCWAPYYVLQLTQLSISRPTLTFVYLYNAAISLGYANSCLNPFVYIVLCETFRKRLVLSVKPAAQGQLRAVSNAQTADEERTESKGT

This assay has as its target T1, human melanin concentrating hormone receptor (MCHR1) (Homo sapiens, UniProt Q99705, A5T/E4Q).
T1 construct: expressed in transfected cells; host or cells: HEK-293 (stably transfected), membranes
Description: Radioligand binding assay for assessment of MCHR1 activity. The following applies: membranes from HEK-293 cells expressing a mutated (E4Q, A5T) hMCHR1 receptor; competition with 0.06 - 0.1 nM [Phe13, [125I]Tyr19]-MCH; 90 min. The method, then: Radioligand Binding Assay for Assessment of MCHR1 Activity
An in vitro binding assay was used to determine the compound Ki value or ability to antagonize binding of a peptide agonist to the human melanin concentrating hormone receptor (MCHR1). Membranes from stably transfected HEK-293 cells expressing a mutated (E4Q, A5T) hMCHR1 receptor were prepared by dounce homogenization and differential centrifugation. Binding experiments were carried out with 0.5-1.0 µg of membrane protein incubated in a total of 0.2 mL in 25 mM HEPES (pH 7.4) with 10 mM MgCl2, 2 mM EGTA, and 0.1% BSA (Binding Buffer) for 90 min. For competition binding assays, reactions were carried out in the presence of with 0.06 - 0.1 nM [Phe^13, [^125I]Tyr^19]-MCH and increasing concentrations of unlabeled test molecules. Reactions were terminated by rapid vacuum filtration over 96 well-GFC […]® plates pre-coated with 0.075 mL binding buffer containing 1% BSA, and washed 3 times with 0.4 mL of Phospho-buffered Saline (pH 7.4) containing 0.01% TX-100. Filters were dried, 0.05 mL MicroScint 20 was added to each well and radioactivity was subsequently quantified by scintillation counting on a TOPCOUNT® microplate scintillation counter (Packard). Inhibitory constants were determined by nonlinear least squares analysis using a four parameter logistic equation.

Usually Ki stands for a measure of affinity in units of concentration, obtained from inhibition or displacement. Higher therefore signals weaker binding. Regarding `CCS(=O)(=O)C[C@@H](O)COc1ccc(N2CCC(Oc3ccc(-c4ccccc4)cc3)C2=O)cc1OC` (stereo partly drawn) [Example 49, 3-(Biphenyl-4-yloxy)-1-(4-((S)-3-(ethylsulfonyl)-2-hydroxypropoxy)-3-methoxyphenyl)pyrrolidin-2-one], the Ki is 6 nM.
